One assay deals with BRM (Homo sapiens, UniProt P51531). The assay is described as follows: ATPase catalytic activity assay (ADP-Glo), BRM. The class given is biochemical. To be noted: Table 10; for Ratio (BRG1 IC50 (μM) divided by BRM IC50 (μM)): ATPase assay, selectivity BRG1/BRM; for IC50: read-out: BRM IC50, ATPase catalytic activity assay (ADP-Glo).
Another assay addresses BRG-1 (Homo sapiens, UniProt P51532). The assay is described as follows: ATPase catalytic activity assay (ADP-Glo), BRG-1. The conditions noted are these: read-out: BRG1 IC50, Table 10.

By UniProt entry, the sequences of proteins in these tests, tags left out.
UniProt P51531, whole entry: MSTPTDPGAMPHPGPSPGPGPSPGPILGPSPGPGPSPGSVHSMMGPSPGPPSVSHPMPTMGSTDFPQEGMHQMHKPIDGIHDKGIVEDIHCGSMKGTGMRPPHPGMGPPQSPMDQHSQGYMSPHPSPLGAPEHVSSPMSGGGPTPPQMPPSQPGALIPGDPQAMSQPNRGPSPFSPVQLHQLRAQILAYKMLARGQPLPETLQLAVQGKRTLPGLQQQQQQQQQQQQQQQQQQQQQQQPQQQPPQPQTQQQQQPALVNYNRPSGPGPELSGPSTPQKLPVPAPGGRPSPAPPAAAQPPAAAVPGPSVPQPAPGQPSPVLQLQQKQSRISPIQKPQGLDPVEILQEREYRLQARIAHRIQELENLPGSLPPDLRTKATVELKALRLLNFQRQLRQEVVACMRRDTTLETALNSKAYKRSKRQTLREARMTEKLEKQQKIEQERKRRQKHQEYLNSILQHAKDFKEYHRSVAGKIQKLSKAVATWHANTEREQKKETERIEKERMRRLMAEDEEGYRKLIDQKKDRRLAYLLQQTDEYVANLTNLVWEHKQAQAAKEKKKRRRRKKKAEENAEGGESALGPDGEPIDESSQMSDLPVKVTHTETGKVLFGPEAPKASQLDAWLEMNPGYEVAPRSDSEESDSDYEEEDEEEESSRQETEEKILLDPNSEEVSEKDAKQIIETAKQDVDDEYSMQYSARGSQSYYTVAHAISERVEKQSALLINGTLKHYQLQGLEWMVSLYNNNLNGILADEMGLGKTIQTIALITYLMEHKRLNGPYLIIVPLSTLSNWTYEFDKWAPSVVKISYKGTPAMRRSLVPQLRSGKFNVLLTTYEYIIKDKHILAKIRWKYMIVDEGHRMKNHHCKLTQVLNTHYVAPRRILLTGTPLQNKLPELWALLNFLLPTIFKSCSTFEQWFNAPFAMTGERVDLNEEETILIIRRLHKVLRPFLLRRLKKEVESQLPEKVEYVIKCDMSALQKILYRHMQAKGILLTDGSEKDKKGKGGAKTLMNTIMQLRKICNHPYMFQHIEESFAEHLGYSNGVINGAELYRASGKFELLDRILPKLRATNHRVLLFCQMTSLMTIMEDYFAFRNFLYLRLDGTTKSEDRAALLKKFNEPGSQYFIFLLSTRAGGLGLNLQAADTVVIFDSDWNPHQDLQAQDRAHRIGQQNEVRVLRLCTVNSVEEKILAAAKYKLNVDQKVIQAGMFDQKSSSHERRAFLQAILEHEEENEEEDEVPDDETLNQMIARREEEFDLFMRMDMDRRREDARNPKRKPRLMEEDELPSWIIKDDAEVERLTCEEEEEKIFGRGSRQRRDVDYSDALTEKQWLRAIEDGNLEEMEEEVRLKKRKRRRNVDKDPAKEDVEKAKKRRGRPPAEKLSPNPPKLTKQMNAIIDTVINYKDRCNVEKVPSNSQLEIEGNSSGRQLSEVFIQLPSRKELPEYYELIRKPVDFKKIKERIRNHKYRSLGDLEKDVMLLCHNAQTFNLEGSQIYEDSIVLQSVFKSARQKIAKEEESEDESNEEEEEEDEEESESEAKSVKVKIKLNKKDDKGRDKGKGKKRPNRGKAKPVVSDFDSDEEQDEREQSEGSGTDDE
UniProt P51532, whole entry: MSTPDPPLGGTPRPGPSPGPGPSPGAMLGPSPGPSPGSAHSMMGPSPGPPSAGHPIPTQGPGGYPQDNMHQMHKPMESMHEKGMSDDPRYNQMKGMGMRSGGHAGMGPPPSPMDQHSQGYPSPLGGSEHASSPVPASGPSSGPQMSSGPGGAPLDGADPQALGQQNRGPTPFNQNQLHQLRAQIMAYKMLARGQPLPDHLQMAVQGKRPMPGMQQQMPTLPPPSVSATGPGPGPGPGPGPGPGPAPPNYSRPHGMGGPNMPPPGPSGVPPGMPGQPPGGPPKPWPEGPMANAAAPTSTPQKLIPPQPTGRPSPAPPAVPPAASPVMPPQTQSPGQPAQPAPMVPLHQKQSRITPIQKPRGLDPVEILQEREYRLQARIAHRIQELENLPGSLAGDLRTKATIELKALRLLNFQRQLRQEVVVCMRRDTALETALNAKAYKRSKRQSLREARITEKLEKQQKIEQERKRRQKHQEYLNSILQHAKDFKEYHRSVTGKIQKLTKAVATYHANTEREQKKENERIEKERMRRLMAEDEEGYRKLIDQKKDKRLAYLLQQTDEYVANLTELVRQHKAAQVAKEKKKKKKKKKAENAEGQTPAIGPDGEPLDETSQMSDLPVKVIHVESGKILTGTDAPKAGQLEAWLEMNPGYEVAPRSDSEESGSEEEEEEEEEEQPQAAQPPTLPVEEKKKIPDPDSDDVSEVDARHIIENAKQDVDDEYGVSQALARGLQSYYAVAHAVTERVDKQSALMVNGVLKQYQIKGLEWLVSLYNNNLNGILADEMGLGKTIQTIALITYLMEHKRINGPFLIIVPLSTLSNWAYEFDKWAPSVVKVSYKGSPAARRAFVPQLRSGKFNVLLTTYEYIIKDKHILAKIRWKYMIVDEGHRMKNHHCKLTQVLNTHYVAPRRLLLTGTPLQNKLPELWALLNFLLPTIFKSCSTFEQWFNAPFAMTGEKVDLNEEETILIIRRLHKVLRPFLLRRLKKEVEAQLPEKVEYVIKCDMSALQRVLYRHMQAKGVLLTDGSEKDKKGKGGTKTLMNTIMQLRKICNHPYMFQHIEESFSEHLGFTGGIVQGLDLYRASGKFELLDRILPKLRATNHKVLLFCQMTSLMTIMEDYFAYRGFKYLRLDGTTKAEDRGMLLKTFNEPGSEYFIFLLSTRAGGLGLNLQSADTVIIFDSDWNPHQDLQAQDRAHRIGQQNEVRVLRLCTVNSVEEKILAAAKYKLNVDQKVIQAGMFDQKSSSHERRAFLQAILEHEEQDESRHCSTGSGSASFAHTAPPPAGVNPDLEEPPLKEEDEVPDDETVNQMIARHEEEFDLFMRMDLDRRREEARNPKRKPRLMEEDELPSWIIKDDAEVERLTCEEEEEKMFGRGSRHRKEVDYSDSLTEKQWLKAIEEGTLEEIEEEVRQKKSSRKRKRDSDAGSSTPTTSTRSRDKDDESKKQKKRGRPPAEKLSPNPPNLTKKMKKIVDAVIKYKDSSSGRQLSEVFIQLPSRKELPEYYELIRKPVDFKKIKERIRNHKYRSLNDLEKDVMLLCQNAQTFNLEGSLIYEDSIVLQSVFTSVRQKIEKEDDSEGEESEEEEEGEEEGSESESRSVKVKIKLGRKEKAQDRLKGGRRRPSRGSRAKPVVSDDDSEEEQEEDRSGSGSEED

As for `C[C@@H]1C[C@H]1c1ccc2c(n1)N(c1ccc3cnc(CNC(=O)c4cc(F)c5c(c4)S(=O)(=O)[C@@H](F)CCO5)cc3n1)CCO2`, the “Ratio (BRG1 IC50 (μM) divided by BRM IC50 (μM))” value at BRM turned out to be 21.51. The IC50 came out at 1.9 nM on BRM and 39.9 nM at BRG-1.
For `COc1nc(C(C)(F)F)ccc1-c1ccc2cnc(CNC(=O)c3ccc4c(c3)S(=O)(=O)[C@@H](F)CCO4)cc2n1` the same measures were 10.70, 7.9 nM and 84.5 nM.

Values taken from patent US12139487B2, “Compounds and uses thereof” (Foghorn Therapeutics Inc., priority 2022, dated 2024).
